In this data set the test system is CCOC(=O)CCCCC(=O)CCCl. Kind of data set: purified protein, by the assay type. Particulars: other: WT, substrate 0.1-10 mM, NADPH, PB pH 7.0, 30° C.

By Km is commonly meant the substrate concentration at which the rate is half of its maximum. Turning to “Candida orthopsilosis Co 90-125 carbonyl reductase CoCR 13 (Genbank XP_003867714.1), wild type (WT), SEQ ID NO: 1 (Lodderomyces orthopsilosis Co 90-125)”, the Km was 5.12 ± 0.87 mM.

For the origin of these results see US12319939B2, “Carbonyl reductase mutant and its application” (priority 2023, dated 2025).
